Assay: Water uptake of the solid
Type: physicochemical
Settings: solid dihydrate

Structure (SMILES): CC(C)Cc1ccc([C@H](C)C(=O)[O-])cc1.O.O.[Na+] [S(−)sodium 2-(4-isobutylphenyl)propionate dihydrate]
- Absorption of further water by the solid: does not absorb further water
